{"sequences": {"note": "Protein sequences, listed by entry. Tags and fused reporters are not part of them.", "UniProt P31645, whole entry, species assumed": "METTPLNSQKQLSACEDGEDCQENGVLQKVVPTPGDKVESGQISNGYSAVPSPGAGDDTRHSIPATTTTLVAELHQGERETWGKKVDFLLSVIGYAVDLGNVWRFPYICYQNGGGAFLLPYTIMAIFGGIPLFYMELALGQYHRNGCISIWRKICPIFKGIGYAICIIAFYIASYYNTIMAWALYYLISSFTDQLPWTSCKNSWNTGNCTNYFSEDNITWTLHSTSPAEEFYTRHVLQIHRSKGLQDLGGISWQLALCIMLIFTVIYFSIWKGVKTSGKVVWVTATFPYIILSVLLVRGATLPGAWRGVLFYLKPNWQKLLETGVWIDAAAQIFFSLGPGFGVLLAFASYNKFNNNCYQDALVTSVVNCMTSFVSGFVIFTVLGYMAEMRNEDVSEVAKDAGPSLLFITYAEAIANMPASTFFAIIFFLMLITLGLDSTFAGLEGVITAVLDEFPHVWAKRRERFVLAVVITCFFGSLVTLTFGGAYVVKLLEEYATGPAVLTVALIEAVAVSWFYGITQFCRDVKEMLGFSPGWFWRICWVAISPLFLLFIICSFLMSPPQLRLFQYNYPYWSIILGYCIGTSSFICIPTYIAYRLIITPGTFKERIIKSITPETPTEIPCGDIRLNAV"}, "source": "patent US11376249B2", "about": "(priority 2017, dated 2022)", "biological_target": "SERT (Homo sapiens, UniProt P31645)", "assay": "biochemical", "assay_type": "binding", "details": "read-out: inhibition SERT", "data": [{"compound": "O=C1CN2c3c(cccc3[C@@H]3CN(CCCC(=O)c4ccc(F)cc4)CC[C@@H]32)N1", "note": "[Example 1, 4-((6bR,10aS)-2-oxo-2,3,6b,9,10,10a-hexahydro-1H,7H-pyrido[3′,4′:4,5]pyrrolo[1,2,3-de]quinoxalin-8-yl)-1-(4-fluoro-phenyl)-butan-1-one]", "values": [{"measurement": "inhibition at 0.24 µM", "value": 44, "unit": "%"}]}]}
